The source of these data is paper PMC3095642, “New Synthetic Thrombin Inhibitors: Molecular Design and Experimental Verification” (PLoS ONE, 2011).

Assay [1] addresses thrombin generation in normal donor plasma (PPP) (Homo sapiens, UniProt P00734). In words: Thrombin generation test in plasma (endogenous thrombin potential, ETP). As to conditions: tested form: iodide; for IC50(ETP)/Ki: ratio of IC50 for ETP reduction in plasma to Ki in buffer system.
The target in another assay is Human thrombin (Homo sapiens, UniProt P00734). The experiment in a line: Thrombin induced hydrolysis of specific substrates in buffer system. As to conditions: chromogenic substrate (SCHR), tested form: iodide; for IC50: read-out: Inhibition of thrombin activity (in buffer system) IC50; for Ki: read-out: Inhibition of thrombin activity (in buffer system) Ki, calculated assuming competitive type of inhibition.

In the case of `Cc1ccc(S(=O)(=O)Oc2cc(C)cc(OCC[n+]3ccc(N)cc3)c2)cc1`, the “IC50(ETP)/Ki” value in assay [1] was 4000. Also, the concentration for half-maximal inhibition (IC50) – broadly, the point on the concentration scale where inhibition reaches its midpoint – in assay [1] (read-out: IC50 for ETP reduction in plasma, Table S2) was 4000 nM. Moreover, on Human thrombin, the IC50 was determined as 11.6 nM and the Ki (commonly a measure of affinity in units of concentration, obtained from inhibition or displacement) is 1 nM.

Turning to `Cc1cc(OCCC[n+]2ccc(N)cc2)cc(OS(=O)(=O)c2ccccc2F)c1`, the “IC50(ETP)/Ki” value in assay [1] is recorded as 341.3. Moreover, on Human thrombin, the 50% inhibitory concentration (IC50) came out at 917 nM and the Ki was 79.1 nM.
